Experimental data as given in patent US8609698B2, “Substituted dipyridyl-dihydropyrazolones and use thereof” (Bayer Intellectual Property GmbH, priority 2006, dated 2013).

Target: HIF prolyl hydroxylase
Test: Inhibition of the activity of HIF prolyl hydroxylase (VBC complex binding test)
Assay type: biochemical
Excerpt: 1. In Vitro Tests for Determination of the Activity and Selectivity of HIF Prolyl 4-Hydroxylase Inhibitors 1.a) Inhibition of the Activity of HIF Prolyl Hydroxylase:
Hydroxylated HIF bonds specifically to the von Hippel-Lindau protein-elongin B-elongin C complex (VBC complex). This interaction occurs only if HIF is hydroxylated on a conserved prolyl radical. It is the basis for the biochemical determination of HIF prolyl hydroxylase activity.
A clear 96-well microtiter plate coated with NeutrAvidin HBC (Pierce) is incubated with blocker casein for 30 minutes. The plate is then washed three times with 200 μl each time of wash buffer (50 mM Tris, pH 7.5, 100 mM NaCl, 10% (v/v) blocker casein, 0.05% (v/v) Tween 20) per well. […] This peptide serves as a substrate for the prolyl hydroxylation and is bonded to the microtiter plate. […]
For quantitative determination of the prolyl hydroxylation, a fusion protein which contains both thioredoxin from E. coli and the VBC complex in 80 μl bonding buffer (50 mM Tris, pH 7.5, 120 mM NaCl) is added. […] The amount of bonded VBC complex is determined by measurement of the optical density at 450 nm. […]
Alternatively, a VBC complex coupled to europium (Perkin Elmer) can be used for detection of the prolyl hydroxylation. In this case, the amount of bonded VBC complex is determined by the fluorescence with respect to time. […]

IC50: 3.7 µM
Structure (SMILES): CC(C)(C)COc1ccc(-n2[nH]cc(-c3cccnc3)c2=O)nc1 [Example 89, 2-[5-(2,2-Dimethylpropoxy)pyridin-2-yl]-4-pyridin-3-yl-1,2-dihydro-3H-pyrazol-3-one hydrochloride]

Where a name gives a salt, the structure may show the parent alone.
